# Yeast mating assay 2: variants of the scFv Ab-95

Data: MIT Lincoln Laboratory AlphaSeq set, Engelhart et al. 2022, doi:10.1038/s41597-022-01779-4, as distributed in FLAb.

Binding partner: SARS-CoV-2 spike HR2 peptide, sequence PDVDLGDISGINAS.

Ab-95 is the parent antibody, in scFv form: VH, then three GGGGS repeats, then VL. The heavy chain is unchanged in all variants.
VH: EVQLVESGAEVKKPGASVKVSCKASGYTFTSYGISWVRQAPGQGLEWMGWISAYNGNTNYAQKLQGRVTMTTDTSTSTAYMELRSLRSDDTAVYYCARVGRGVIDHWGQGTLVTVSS
VL: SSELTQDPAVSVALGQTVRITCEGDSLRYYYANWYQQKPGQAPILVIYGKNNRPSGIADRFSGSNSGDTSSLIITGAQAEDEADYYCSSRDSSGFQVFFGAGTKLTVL

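The parent was found by panning a naive human phage display library on the peptide. AAYL52 was designed without a model: most single CDR substitutions and a random sample of double and triple ones. The assay is AlphaSeq: two haploid yeast populations carry antibody and antigen on their surface. The frequency of each diploid, read from paired DNA barcodes, reflects how well the two displayed proteins bind. Scores were corrected for input abundance and mapped to Kd with protein pairs of known affinity run in the same pool. The assay was run in three technical replicates.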

Variants are written as CDR1, CDR2 and CDR3 of the light chain (limits as in the source). Parent: EGDSLRYYYAN, GKNNRPS, SSRDSSGFQVF. Values are log10 of the apparent Kd in nM; lower means stronger binding. An entry "ND" has no value in the source: the pair was not observed among the diploids in that replicate. This suggests poor binding but is not conclusive. Nonspecific signal, from three strains lacking the peptide, appeared in 28% of pairings of library AAYL52, centred on 3.91 (5% of these signals below 2.90); values are not corrected for it. For each scFv, signals with the empty controls are counted beside the result, with their mean in brackets.

CDR-L1 | CDR-L2 | CDR-L3 | log10 Kd (nM) by replicate | signal with controls
EEDSERYYYAN | GKNNRPS | SSRNSSGFQVF | 3.91 5.07 ND | 4 of 9 (3.91)
EGDSLRYYRAN | GKSNRSS | SSRDSSGFQVF | 3.54 3.44 4.06 | 6 of 9 (3.96)
EQDSLRYYYAN | GKNNRQS | SSRPSSGFQVF | 4.29 ND ND | 3 of 9 (4.76)
EMDSLRYYYAN | GANNRPS | SSRDSSGFQEF | ND ND ND | 2 of 9 (2.84)
ERDSLRYYYAN | GKNNRVA | SSRDSSGFQVF | 5.87 5.87 4.23 | 6 of 9 (4.11)
EADSLRYYYAN | TKNNRPV | SSRDSSGFQVF | 4.13 ND 3.84 | 3 of 9 (4.07)
EGDSLRYYYAN | GKNNRPS | SNRISSGFWVF | 3.50 4.80 ND | 3 of 9 (4.29)
RGDSLRQYYAN | GKNNRPS | SDRDSSGFQVF | 2.79 3.01 2.62 | 1 of 9 (4.76)
TGNCLRYYYAN | GKNNRPS | SSRDSSGFQVF | 3.34 4.48 ND | 0 of 9
EGKSLRYYYAN | GDTNRPS | SSRDSSGFQVF | 2.80 2.88 2.21 | 1 of 9 (3.64)
EFDSLRYYLRN | GKNNRPS | SSRDSSGFQVF | 5.39 4.08 ND | 2 of 9 (3.48)
EGDSIRYYYAN | GKNNIPS | SSRDSSGFQVN | ND ND ND | 1 of 9 (4.75)
EGDSLCYYFAN | GKNNRPS | SERDSSGFQVF | 4.55 ND ND | 5 of 9 (3.80)
EGDSLRYYNAN | GKNNRPS | SSRDSSGFQIF | 1.51 1.62 1.22 | 3 of 9 (4.08)
EGMSLRKSYAN | GKNNRPS | SSRDSSGFQVF | 1.54 1.42 0.85 | 6 of 9 (3.84)
EGDSLRYYYHN | GLNNRPT | SSRDSSGFQVF | ND ND 2.91 | 2 of 9 (3.68)
EGDSLFYYYAN | GLNNRPL | SSRDSSGFQVF | 4.91 ND ND | 1 of 9 (4.60)
EGDSLRYYYAN | GKNARPS | SQRDSSTFQVF | 4.30 4.11 3.15 | 3 of 9 (4.51)
EGDSLRYYYAN | GKNNRPV | SSRDSWGFQTF | ND ND ND | 0 of 9
EGDSLRYYYHY | GKNHRPS | SSRDSSGFQVF | 5.45 ND ND | 2 of 9 (3.82)
EGDSLRYYYAN | GKINRPS | KSRDPSGFQVF | 3.71 4.38 ND | 2 of 9 (4.37)
EGDKLRYYYAN | QKNNRPS | SSRDSSLFQVF | ND ND ND | 0 of 9
EGDSGRYYYAN | GKNNRPS | SWRDSSGFQQF | 2.71 3.42 ND | 4 of 9 (4.17)
EGDSLRYYYQN | GKNNRVS | SSRDSSGFQKF | ND ND ND | 0 of 9
EIFSLRYYYAN | GKNNRPS | STRDSSGFQVF | ND ND ND | 0 of 9
EGDSLRYYYAN | GKNNRPS | WSWDSSFFQVF | 2.25 1.98 1.63 | 2 of 9 (3.16)
EGDSKRYYYAN | GYNNRPS | SSRDSSGFQPF | ND 3.45 ND | 3 of 9 (4.46)
EEDSLRYYYAN | GKNNRPS | SSRDSSFFQVV | ND ND ND | 3 of 9 (3.39)
EGDSLRYYYCN | AKNIRPS | SSRDSSGFQVF | 3.63 4.42 3.81 | 1 of 9 (3.67)
EGDSLRYYYAN | GKNNRPS | SSGFSSGFQVF | 4.38 4.11 ND | 2 of 9 (4.34)
EGDSVRYYYAN | GMNNRPS | SQRDSSGFQVF | ND ND 3.71 | 5 of 9 (3.77)
EGDSLIYYYYN | GKNNRPS | NSRDSSGFQVF | 5.45 ND ND | 2 of 9 (4.03)
EEDSLRYYYAY | GKNNRPS | SSNDSSGFQVF | ND ND 3.25 | 2 of 9 (3.06)
EGDSLCYYYAN | GKNNRNS | SSRDSSGMQVF | 3.15 4.17 4.06 | 8 of 9 (3.74)
EGDSLRFYYAN | GKNNRPS | SSRDSLGEQVF | 3.01 2.63 2.77 | 1 of 9 (4.65)
EGDSLRYYYAN | GFNNRPS | SSRDSEGEQVF | ND ND ND | 5 of 9 (3.47)
EGDSLRYYYAN | GKNNEPS | SSRDPEGFQVF | 4.10 ND ND | 2 of 9 (4.04)
EGDSLSYYYAN | GKNNRPS | SSQDYSGFQVF | ND ND ND | 0 of 9

Top 4 of the variants detected in all replicates, tightest first:

CDR-L1 | CDR-L2 | CDR-L3 | log10 Kd (nM) by replicate | signal with controls
EGMSLRKSYAN | GKNNRPS | SSRDSSGFQVF | 1.54 1.42 0.85 | 6 of 9 (3.84)
EGDSLRYYNAN | GKNNRPS | SSRDSSGFQIF | 1.51 1.62 1.22 | 3 of 9 (4.08)
EGDSLRYYYAN | GKNNRPS | WSWDSSFFQVF | 2.25 1.98 1.63 | 2 of 9 (3.16)
EGKSLRYYYAN | GDTNRPS | SSRDSSGFQVF | 2.80 2.88 2.21 | 1 of 9 (3.64)

In this assay the parent's reference entry averaged 2.31; its copy inside this library read 2.25.